How the values were obtained:
[1] = target: T1, Adenosine receptor A3 (Homo sapiens, UniProt P0DMS8); assay: Displacement of radioligand from human recombinant adenosine A3 receptor at 21 degC after 60 mins by cell-based microplate scintillation counting
[2] = target: T2, Adenosine receptor A2b (Homo sapiens, UniProt P29275); assay: Antagonist activity at human adenosine A2B receptor expressed in CHO-K1 cells by calcium mobilization-based FLIPR assay; type: functional, cell-based; conditions: read-out: pA2 (converted)
T2 sequence (P29275 whole entry): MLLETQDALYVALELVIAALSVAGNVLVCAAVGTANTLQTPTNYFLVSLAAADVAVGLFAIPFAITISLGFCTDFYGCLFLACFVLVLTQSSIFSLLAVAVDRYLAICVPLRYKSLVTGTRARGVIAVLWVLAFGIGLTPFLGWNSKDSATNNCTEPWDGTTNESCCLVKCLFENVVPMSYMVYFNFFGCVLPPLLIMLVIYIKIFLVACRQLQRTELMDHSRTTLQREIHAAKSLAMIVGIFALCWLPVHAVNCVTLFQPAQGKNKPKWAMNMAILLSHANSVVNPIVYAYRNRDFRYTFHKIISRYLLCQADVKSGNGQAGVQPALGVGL

Sequences of proteins named here, by UniProt entry; tags and fusion partners are left off.
UniProt P0DMS8, whole entry: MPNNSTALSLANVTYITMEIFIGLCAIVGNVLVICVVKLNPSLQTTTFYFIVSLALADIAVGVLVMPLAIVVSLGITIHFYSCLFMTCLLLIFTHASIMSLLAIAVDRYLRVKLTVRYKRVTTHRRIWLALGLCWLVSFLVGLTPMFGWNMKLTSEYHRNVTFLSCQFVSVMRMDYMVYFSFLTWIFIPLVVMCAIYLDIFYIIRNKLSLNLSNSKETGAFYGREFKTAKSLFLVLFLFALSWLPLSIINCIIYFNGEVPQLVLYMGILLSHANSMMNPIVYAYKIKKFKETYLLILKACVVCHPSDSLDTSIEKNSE
UniProt P30542, whole entry: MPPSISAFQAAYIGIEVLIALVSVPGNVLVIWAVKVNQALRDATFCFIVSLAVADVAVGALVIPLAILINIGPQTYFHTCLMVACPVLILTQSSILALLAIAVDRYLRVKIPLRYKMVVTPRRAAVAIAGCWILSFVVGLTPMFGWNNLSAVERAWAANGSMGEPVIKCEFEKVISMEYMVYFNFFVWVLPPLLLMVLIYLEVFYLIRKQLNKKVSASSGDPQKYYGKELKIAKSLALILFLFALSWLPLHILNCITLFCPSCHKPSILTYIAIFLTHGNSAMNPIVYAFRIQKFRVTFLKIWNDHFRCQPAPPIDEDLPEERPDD

[3] = target: Adenosine receptor A1 (Homo sapiens, UniProt P30542); assay: Antagonist activity at human adenosine A1 receptor expressed in CHO-K1 cells by calcium mobilization-based FLIPR assay; type: functional, cell-based; conditions: read-out: pA2 (converted)
[4] = target: T1, Adenosine receptor A3; assay: Antagonist activity at human adenosine A3 receptor expressed in CHO-K1 cells by calcium mobilization-based FLIPR assay; type: functional, cell-based; conditions: read-out: pA2 (converted)
[5] = target: Adenosine receptor A2a (Homo sapiens, UniProt P29274); assay: Antagonist activity at human adenosine A2A receptor expressed in CHO-K1 cells treated for 15 mins by calcium mobilization-based FLIPR assay; type: functional, cell-based; conditions: read-out: pA2 (converted)
[6] = target: T2, Adenosine receptor A2b; assay: Displacement of radioligand from human recombinant adenosine A2B receptor at 21 degC after 60 mins by cell-based microplate scintillation counting

Ki [1]: 1010 nM
Kb [2]: 31.6 nM
Kb [3]: 100 nM
Kb [4]: 1580 nM
Kb [5]: 0.631 nM
Ki [6]: 63 nM
SMILES: Cc1cc(Cn2nnc3c(-c4ccco4)nc(N)nc32)ccc1N [VIPADENANT]
